# Literature values, collected in paper PMC7650794, “Pharmacological Modulation of Blood–Brain Barrier Permeability by Kinin Analogs in Normal and Pathologic Conditions” (Pharmaceuticals, 2020).
# Test system: GBM patients, EGFR-positive glioma
# Set-up: method as in 2 sources, one per row (each row's own in cited_ref): ref [40] = [40]; PMID 28791656; doi:10.1007/s40263-017-0456-6; 40. Westphal M. Maire C.L. Lamszus K. EGFR as a Target for Glioblastoma Treatment: An Unfulfilled Promise CNS Drugs 2017 31 723 735 10.1007/s40263-017-0456-6 28791656 PMC5573763 ||| ref [41] = [41]; PMID 29790314; 41. Kulason K.O. Schneider J.R. Chakraborty S. Filippi C.G. Pramanik B. Wong T. Fralin S. Tan K. Ray A. Alter R.A. Superselective intraarterial cerebral infusion of cetuximab with blood brain barrier
# Conditions: cited from earlier work
substance,measurement,setting,value
Cetuximab: recombinant monoclonal antibody targeting the EGFR,safety and efficacy with mannitol-induced BBB disruption,"prospective Phase I study, mannitol-induced BBB disruption prior to infusion, EGFR-positive glioma patients, ref [41]",promising initial findings
same,clinical efficacy for GBM,"single agent or in combination, ref [40]",failed to demonstrate clinical efficacy either as a single agent or in combination for GBM
